Assay results taken from ChEMBL document CHEMBL1143946, “Docking analyses on human muscarinic receptors: unveiling the subtypes peculiarities in agonists binding” (Bioorg Med Chem, 2008).
pKi: −log10 of the molar value.

Amino acid sequences for entries named in this document (tags omitted). A change or cut given only in a name is not applied to a line headed by its entry.
UniProt P11229: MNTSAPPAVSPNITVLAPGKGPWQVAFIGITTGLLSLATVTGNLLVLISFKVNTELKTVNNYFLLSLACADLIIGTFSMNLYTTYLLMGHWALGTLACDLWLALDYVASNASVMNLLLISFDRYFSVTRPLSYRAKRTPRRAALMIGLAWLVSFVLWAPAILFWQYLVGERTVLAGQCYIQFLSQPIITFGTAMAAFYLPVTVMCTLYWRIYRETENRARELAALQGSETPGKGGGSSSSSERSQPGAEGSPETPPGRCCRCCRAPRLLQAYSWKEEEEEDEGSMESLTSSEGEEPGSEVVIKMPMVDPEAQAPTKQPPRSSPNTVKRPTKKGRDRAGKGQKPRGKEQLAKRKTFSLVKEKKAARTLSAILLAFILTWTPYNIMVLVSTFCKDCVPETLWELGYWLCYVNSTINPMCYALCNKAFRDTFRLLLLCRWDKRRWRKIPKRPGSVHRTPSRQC

Molecular target: Muscarinic acetylcholine receptor M1 (Homo sapiens, UniProt P11229)
Test: biochemical

C[C@H]1COC[C@@H](C[N+](C)(C)C)O1
pKi: 5.08
